As a reminder, the Kd is the free concentration of one partner at which half of the binding sites on the other are occupied at equilibrium, for simple one-to-one binding.

The target in experiment [1] is recombinant human interferon alfa-2b (human) (UniProt P01563). Put plainly: SPR; IFN-α immobilised by amine coupling; S100 proteins as analyte; 25 °C; 10 mM HEPES, 150 mM NaCl, 0.01% TWEEN 20, pH 7.4.
In experiment [2] the target is recombinant human S100A6 (human) (UniProt P06703). Put plainly: SPR; estimate from the SPR data for 0.5 µM S100 analyte on immobilised IFN-β, 1 mM CaCl2; dimer to monomers, Ca^2+-loaded S100.
Experiment [3] deals with recombinant human interferon beta-1a (human) (UniProt P01574). Kind of experiment: SPR; IFN-β immobilised on ProteOn GLH chip by amine coupling; Ca^2+-loaded S100 as analyte (0.25–5 µM S100A1, 0.5–5 µM S100A4/A6, 5 µM other S100); 25 °C; 10 mM HEPES, 150 mM NaCl, 0.01% TWEEN 20, pH 7.4, 1 mM CaCl2; heterogeneous ligand model.

Consider “recombinant human S100A6 (from UniProt P06703 1-90) (natural protein)”, for which, in experiment [1], the Kd was above 10000 nM. Further, the Kd in experiment [2] is below 500 nM. Besides, in experiment [3], the Kd1 (KD, ligand population L1) was determined as 82 nM; the Kd2 (KD, ligand population L2) is 267 nM; the kd1 (koff, ligand population L1) amounted to 0.00021 s⁻¹; the kd2 (koff, ligand population L2) was determined as 0.00407 s⁻¹.
